# According to article PMC6149722, “Comparison of the Binding of Reversible Inhibitors to Human Butyrylcholinesterase and Acetylcholinesterase: A Crystallographic, Kinetic and Calorimetric Study” (Molecules : A Journal of Synthetic Chemistry and Natural …, 2017):
# Chains of the proteins cited; added tags and fusions are not shown. Residues count along the entry.
# UniProt P22303, 32-574: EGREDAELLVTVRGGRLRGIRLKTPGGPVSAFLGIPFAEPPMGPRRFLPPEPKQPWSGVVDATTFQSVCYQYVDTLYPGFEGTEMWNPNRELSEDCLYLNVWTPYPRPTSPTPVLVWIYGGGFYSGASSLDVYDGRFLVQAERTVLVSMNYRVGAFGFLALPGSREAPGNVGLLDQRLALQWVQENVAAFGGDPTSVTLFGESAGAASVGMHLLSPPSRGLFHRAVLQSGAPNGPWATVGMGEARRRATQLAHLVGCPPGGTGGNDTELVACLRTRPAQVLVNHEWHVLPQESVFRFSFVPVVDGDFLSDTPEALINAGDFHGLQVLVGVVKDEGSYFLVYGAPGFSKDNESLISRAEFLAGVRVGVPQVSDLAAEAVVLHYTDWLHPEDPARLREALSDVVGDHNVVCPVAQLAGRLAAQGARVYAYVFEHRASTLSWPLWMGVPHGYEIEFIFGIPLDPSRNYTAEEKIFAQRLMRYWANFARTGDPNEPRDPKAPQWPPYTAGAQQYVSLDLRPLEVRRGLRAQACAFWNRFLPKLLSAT
# Where “and” joins values, the source holds several entries; their conditions need not be identical. Equal entries are not always repeated.
# Target: hAChE (Homo sapiens, UniProt P22303)
# Assay: biochemical
# Format: binding
smiles,measurement,setting,value
"CC[N+](C)(CC)CCC[n+]1c(-c2ccccc2)c2cc(N)ccc2c2ccc(N)cc21 [Propidium, propidium iodide]",Kd,,6.7 ± 0.7 µM
same,"n (±SD), binding stoichiometry",pH 8,~ 1 and 0.8 ± 0.1
same,"ΔH (±SD), binding heat",pH 8,-10.9 ± 1.2 kcal/mol
